One experiment deals with human TL1A (human) (UniProt O95150). Put plainly: cell-based or functional assay.
In experiment [1] the target is cynomolgus TNF-α (cynomolgus monkey) (UniProt P79337). Put plainly: cell-based or functional assay.
Experiment [2] shares this target. Briefly: SPR, mAb captured on anti-human Fc chip, TNF injected, 1:1 model.
In the next experiment the target is human TNF-α (human) (UniProt P01375). Briefly: cell-based or functional assay.

This is an account of results in patent US20190119407A1.

In the experiment with human TL1A (human), “Adalimumab IgG-9C8 scFv + CC, iPS 369992 (bispecific antibody)” registered an Activity TL1A (pM) of 151 pM.
The same measure, in the same setting: with “Adalimumab IgG-9C8 scFv, iPS 369989 (bispecific antibody)” the figure was 140 pM.
As usually defined, the Kd is a measure of binding affinity in units of concentration. A lower Kd goes with higher affinity. What is called koff is a measure of how fast the partners let go of each other. The low end stands for a long-lived complex, the high end for a short-lived complex. Usually kon stands for the rate constant with which the complex forms. Low readings indicate slower complex formation, high ones faster complex formation. As for adalimumab (antibody), the IC50 (pM) NFkB, Cyno TNF (20 pM) in experiment [1] stood at 180 pM. In experiment [2], the dissociation constant Kd is 0.087 nM, the koff is 5.5e-05 s⁻¹ and the kon is 640000 M⁻¹ s⁻¹.
In the experiment with human TL1A (human), iPS 377073 (bispecific antibody) registered a hu TL1A (pM) of 47.1 pM and a hu TL1A Fold Change of 0.312 fold. Besides, in the experiment with human TNF-α (human), the hu TNFα (pM) worked out at 36.8 pM and the hu TNFα Fold Change was 0.254 fold.
